Reference: patent US20240139185A1, “COMPOUNDS THAT PARTICIPATE IN COOPERATIVE BINDING AND USES THEREOF” (Revolution Medicines, Inc., priority 2018, published 2024)

Key:
[1] = target: BRAF-GTP-KRAS-G12C complex (Homo sapiens, UniProt P01116+P62937, G12C); assay: KRAS-BRAF complex disruption through competition with CYPA-compound by TR-FRET; conditions: read-out: BRAF-GTP-KRAS-G12C Disruption; biochemical BRAF-KRAS G12C-GTP disruption assay EC50, with CYPA
Procedure: In this example, TR-FRET was used to measure the compound-facilitated disruption of a KRAS-BRAF complex. A mixture of tagless Cyclophilin A, His6-KRAS G12C-GMP-PNP, and GST-BRAF RAS binding domain was added to a 384-well assay plate containing compounds of the invention and incubated for 3 hours. A mixture of Anti-His Eu-W1024 and anti-GST allophycocyanin was then added and the reaction was incubated for an additional 1.5 hours. TR-FRET signal was read on an EnVision microplate reader (Perkin Elmer, Ex 320 nm, Em 665/615 nm). Compounds that facilitate disruption of a KRAS_BRAF complex were identified as those eliciting a decrease in the TR-FRET ratio relative to DMSO control wells. To determine the presenter-dependence of the compound-mediated KRAS-BRAF complex disruption, Cyclophilin A was left out of the initial incubation (see Table 5). To determine G12C specificity of the compound-mediated KRAS-BRAF complex disruption, wild-type KRAS was used instead of G12C KRAS (see Table 5).
Reagents and Instrument • Tagless CYPA; 519 μM in PBS buffer, pH 7.4 • GST BRAF; 110 μM in PBS buffer, pH 7.4 • His6-KRASG12C-GMP-PNP; 50 μM in PBS buffer, pH 7.4 • His6-KRASWT-GMP-PNP; 40 μM in PBS buffer, pH 7.4 • Anti-His Eu-W1024 (LANCE® Eu-W1024; Perkin Elmer) • Anti-GST allophycocyanin (Anti-GST IgG conjugated to SureLight®-Allophycocyanin; Perkin Elmer; Product Number AD0059G) • Test compounds, 10 mM in 100% DMSO • EnVision (Perkin Elmer) • Combi MultiDrop liquid dispenser with 8-channel small volume cassette • 384-well ProxiPlate (black)
Experimental Protocol • 1. Use Mosquito to dispense 100 nL/well of compounds (varying concentration in […]) into 384-well black ProxiPlate to make assay-ready-plate (ARP). • 2. Make assay buffer containing 25 mM Hepes pH 7.3, 100 mM NaCl, 5 mM MgCl2, 0.05% BSA, and 0.002% Tween-20. • 3. Make PRE-MIX A: delivers final concentrations of 50 nM of His6-KRas G12C-GTP (1-169) and 500 nM of tagless CypA (1-165) in assay buffer. • a. For presenter dependence experiments, omit addition of tagless CypA • b. For G12C/wt specificity experiments, substitute His6-KRas WT-GTP (1-169) for His6-KRas G12C-GTP (1-169) • 4. Use MultiDrop Combi to dispense PRE-MIX A into ARP, 7 μl/well. Incubate 3 hr at room temperature. • 5. Make PRE-MIX B: delivers final concentrations of 10 nM of anti-His Eu-W1024 and 50 nM of anti-GST APC. • 6. Use MultiDrop Combi to dispense PRE-MIX B into ARP, 3 μl/well. Shake briefly on Combi and incubate 1.5 hr at room temperature. • 7. Read on EnVision (Ex: 320 nm; Em1: 615 nm; Em2: 665 nm). • 8. Data is processed using Dotmatics. Curves are fit using a 4-parameter non-linear fit to determine the EC50 value for formation of the ternary complex.

cyclophilin A (CYPA) = cyclophilin A (CYPA) (Homo sapiens, UniProt P62937); assay: CYPA-compound binary complex formation by SPR; conditions: read-out: CYPA Binding Affinity
Procedure: In order to determine the affinity of compounds of the invention for cyclophilin A (CYPA), we employed surface plasmon resonance binding analysis using the following reagents, instruments and protocol as supplied by the instrument manufacturer.
Reagents and Instrument • 1. Instrument: Biacore S200 (GE Healthcare Life Sciences) • 2. Running buffer: 1×HBS-P+ (1×HBS supplemented with 0.05% Tween20), pH7.4, and 2% DMSO. • 3. Ligand: CypA-Avi • 4. Analyte: Serial dilution of WDB compounds from 50 μM to 0 μM, 2-fold dilution, 10 points (10 mM stock concentration). • 5. Sensor kit: Biotin CAPture Kit (BR28-9202-34, GE Healthcare Life Sciences) • 6. Regeneration buffer: 1 volume of 1 M NaOH and 3 volumes of 8 M guanidine hydrochloride (supplied with CAPture Kit, BR28-9202-34, GE Healthcare Life Sciences)
Experimental Procedure • 1. Capture of CAPreagent: 2 μl/min for 60 seconds. • 2. Immobilization of ligand CypA: Use Fc1 as the reference cell; immobilize CypA at 4 μg/ml using 5 μl/min flowrate on Fc2 (60s), Fc3 (80s) and Fc4 (80s), respectively. • 3. Binding of analytes: Inject WDB compound dilutions sequentially at 50 μl/min for association of 60 seconds. And then let it dissociates in buffer at 50 μl/min for 60 seconds. • 4. Regeneration: 2 injections of regeneration buffer at 30 μl/min for 60 seconds to regenerate the chip surface. • 5. Solvent correction: Run solvent correction at beginning and the end of the run. If run more than 6 compounds, add additional solvent correction every 6 compounds. • 6. Data fitting with built-in Biacore Evaluation Software: Steady-state fitting.

pERK in H358 cells = assay: pERK inhibition in H358 cells; conditions: read-out: Cellular pERK inhibition, 4 hours treatment
Procedure: H358 cells (5500 cells) derived from a human lung cancer were plated in a 96 well plate in media (100 uL, RPMI with 10% FBS). After 24 hours, cells were treated for 4 hours with compound or DMSO. Cells were washed twice with room temperature TBS (200 uL) and fixed for 20 minutes with 4% paraformaldehyde diluted with TBS (150 uL). Cells were washed four times for five minutes with 0.1% TritonX/TBS (150 uL) to permeabilize the membrane. Cells were incubated with TBS blocking buffer (100 uL) at room temperature for 60 minutes. Primary antibody (Phospho-p44/42 MAPK (Erk1/2) (Thr202/Tyr204) (D13.14.4E) XP® Rabbit mAb #4370, Cell Signaling Technology; 1:200) was added, and the cells were incubated overnight at 4 C. The cells were washed four times for five minutes with 0.1% Tween 20/TBS (150 uL). Secondary antibody (IRDye® 800CW Goat-Anti-Rabbit IgG, Li-Cor Biosciences; 1:1000) and DRAQ5™ (Invitrogen; 1:2000) was added, and the cells were incubated for 1 hour at room temperature. The cells were washed four times for five minutes with 0.1% Tween 20/TBS (150 uL) and scanned using the LICOR (700 and 800 nm).

| Structure (SMILES) | EC50 [1] | Kd (cyclophilin A (CYPA)) | IC50 (pERK in H358 cells) |
| --- | --- | --- | --- |
| C/C=C/S(=O)(=O)CC(=O)N(C)[C@H](C(=O)N[C@H]1Cc2cc(O)cc(c2)-c2ccc3ncn(c3c2)CCCOC(=O)[C@@H]2CCCN(N2)C1=O)C(C)C | > 5 µM | < 5 µM |  |
| CC(C)[C@@H](C(=O)N[C@H]1Cc2cc(O)cc(c2)-c2ccc3ncn(c3c2)CCCOC(=O)[C@@H]2CCCN(N2)C1=O)N(C)C(=O)CC1CC=CC1=O (single isomer, unassigned) | > 5 µM | > 15 µM |  |
| CC1COC(=O)[C@@H]2CCCN(N2)C(=O)[C@@H](NC(=O)[C@H](C(C)C)N(C)C(=O)C2CN(C(=O)[C@@H](C)Cl)C2)Cc2cc(O)cc(c2)-c2ccc3c(c2)c(cn3C(C)(C)C#N)C1 (single isomer, unassigned) [311] | > 5 µM |  | > 10 µM |
| C=CC(=O)N1CCN([C@H](C(=O)N[C@H]2Cc3cc(O)cc(c3)-c3ccc4nccc(c4c3)CCOC(=O)[C@@H]3CCCN(N3)C2=O)C(C)C)C1=O |  | < 5 µM |  |
| CC(C)[C@@H](C(=O)N[C@H]1Cc2cc(O)cc(c2)-c2ccc3c(C#N)cn(c3c2)CC(C)(C)COC(=O)[C@@H]2CCCN(N2)C1=O)N(C)C(=O)CN1CC=CC1=O | > 5 µM | 5 to 15 µM |  |
| C=CC(=O)N1CC[C@H](C(=O)N(C)[C@H](C(=O)N[C@H]2Cc3cc(O)cc(c3)-c3ccc4c(c3)c(c(C#N)n4CC)CC(C)COC(=O)[C@@H]3CCCN(N3)C2=O)C(C)C)C1 (single isomer, unassigned) [373] | > 5 µM |  | 1 to 10 µM |
| C=CC(=O)N1CC[C@H](C(=O)N(C)[C@H](C(=O)N[C@H]2Cc3cc(O)cc(c3)-c3ccc4c(c3)c(c(C#N)n4CC)CC(C)COC(=O)[C@@H]3CCCN(N3)C2=O)C(C)C)C1 (single isomer, unassigned) [372] | 0.5 to 5 µM |  | < 1 µM |
| CC(C)[C@@H](C(=O)N[C@H]1Cc2cc(O)cc(c2)-c2ccc3nc(-c4ccccn4)n(c3c2)CCCOC(=O)[C@@H]2CCCN(N2)C1=O)N(C)C(=O)C1CN(C(=O)CCl)C1 | > 5 µM | < 5 µM |  |
| CC1COC(=O)[C@@H]2CCCN(N2)C(=O)[C@@H](NC(=O)[C@H](C(C)C)N(C)C(=O)C2CN(C(=O)[C@@H](C)Cl)C2)Cc2cc(O)cc(c2)-c2ccc3c(c2)c(cn3C(C)(C)C#N)C1 (single isomer, unassigned) [310] | > 5 µM |  | 1 to 10 µM |
| C=CS(=O)(=O)N1CCN([C@H](C(=O)N[C@H]2Cc3cc(O)cc(c3)-c3ccc4ncn(c4c3)CCCOC(=O)[C@@H]3CCCN(N3)C2=O)C(C)C)C(=O)C1 | > 5 µM | < 5 µM |  |
| C=CC(=O)N1CC(C(=O)N(C)[C@H](C(=O)N[C@H]2Cc3cc(O)cc(c3)-c3ccc4c(C5=CCN(C)CC5)nn(c4c3)CC(C)(C)COC(=O)[C@@H]3CCCN(N3)C2=O)C(C)C)C1 | 0.5 to 5 µM | > 15 µM |  |
| C=CC(=O)N1CCN([C@H](C(=O)N[C@H]2Cc3cc(O)cc(c3)-c3cc(C#N)c4ncn(c4c3)CCCOC(=O)[C@@H]3CCCN(N3)C2=O)C(C)C)C1=O | > 5 µM | < 5 µM |  |
| C=CC(=O)N1CCN([C@H](C(=O)N[C@H]2Cc3cc(O)cc(c3)-c3ccc4ncn(c4c3)CCOC(=O)[C@@H]3CCCN(N3)C2=O)C(C)C)C1=O | > 5 µM | < 5 µM |  |
| C=CS(=O)(=O)N1CC(C(=O)N(C)[C@H](C(=O)N[C@H]2Cc3cc(O)cc(c3)-c3ccc4ncn(c4c3)CCCOC(=O)[C@@H]3CCCN(N3)C2=O)C(C)C)C1 | 0.5 to 5 µM | 5 to 15 µM |  |
| Cc1nc2ccc3cc2n1CC(F)(F)COC(=O)[C@@H]1CCCN(N1)C(=O)[C@@H](NC(=O)[C@H](C(C)C)N(C)C(=O)C1CN(C(=O)CCl)C1)Cc1cc(O)cc-3c1 | 0.5 to 5 µM | < 5 µM |  |
| C=CC(=O)N1CC(C(=O)N(C)[C@H](C(=O)N[C@H]2Cc3cc(O)cc(c3)-c3ccc4ncn(c4c3)CCCOC(=O)[C@@H]3CCCN(N3)C2=O)C(C)C)C1 | > 5 µM | 5 to 15 µM |  |
| CC(C)[C@H](NC(=O)C1CN(C(=O)CCl)C1)C(=O)N[C@H]1Cc2cc(O)cc(c2)-c2ccc3c(C#N)cn(c3c2)CC(C)(C)COC(=O)[C@@H]2CCCN(N2)C1=O | 0.5 to 5 µM | 5 to 15 µM |  |
| C=CC(=O)N1CCN([C@H](C(=O)N[C@H]2Cc3cc(O)cc(c3)-c3ccc4c5cnccc5n(c4c3)CCCOC(=O)[C@@H]3CCCN(N3)C2=O)C(C)C)C1=O | 0.5 to 5 µM | < 5 µM |  |
| C=CC(=O)N1CCN([C@H](C(=O)N[C@H]2Cc3cc(O)cc(c3)-c3cnc4ccn(c4c3)CCCOC(=O)[C@@H]3CCCN(N3)C2=O)C(C)C)C1=O | > 5 µM | < 5 µM |  |
| C=CC(=O)N1CCN([C@H](C(=O)N[C@H]2Cc3cc(O)cc(c3)-c3ccc4nc(C)n(c4c3)C(C)CCOC(=O)[C@@H]3CCCN(N3)C2=O)C(C)C)C1=O (stereo partly shown) | > 5 µM | < 5 µM |  |
| C=CC(=O)N1CCN([C@H](C(=O)N[C@H]2Cc3cc(O)cc(c3)-c3ccc4c(c3)N(CCCOC(=O)[C@@H]3CCCN(N3)C2=O)CCO4)C(C)C)C1=O | > 5 µM | < 5 µM |  |
| COc1cccc(-c2nc3ccc4cc3n2CCCOC(=O)[C@@H]2CCCN(N2)C(=O)[C@@H](NC(=O)[C@H](C(C)C)N(C)C(=O)C2CN(C(=O)CCl)C2)Cc2cc(O)cc-4c2)c1 | < 0.5 µM | < 5 µM |  |
| CC(C)[C@@H](C(=O)N[C@H]1Cc2cc(O)cc(c2)-c2ccc3nc(-c4cccc(C#N)c4)n(c3c2)CCCOC(=O)[C@@H]2CCCN(N2)C1=O)N(C)C(=O)C1CN(C(=O)CCl)C1 | 0.5 to 5 µM | 5 to 15 µM |  |
| C=CC(=O)N1CCN([C@H](C(=O)N[C@H]2Cc3cccc(c3)-c3ccc4ncn(c4c3)CCCOC(=O)[C@@H]3CCCN(N3)C2=O)C(C)C)C1=O | > 5 µM |  |  |
